{"sequences": {"note": "Sequences of proteins named here, by UniProt entry; tags and fusion partners are left off. A change or cut given only in a name is not applied to a line headed by its entry.", "UniProt P33533, whole entry": "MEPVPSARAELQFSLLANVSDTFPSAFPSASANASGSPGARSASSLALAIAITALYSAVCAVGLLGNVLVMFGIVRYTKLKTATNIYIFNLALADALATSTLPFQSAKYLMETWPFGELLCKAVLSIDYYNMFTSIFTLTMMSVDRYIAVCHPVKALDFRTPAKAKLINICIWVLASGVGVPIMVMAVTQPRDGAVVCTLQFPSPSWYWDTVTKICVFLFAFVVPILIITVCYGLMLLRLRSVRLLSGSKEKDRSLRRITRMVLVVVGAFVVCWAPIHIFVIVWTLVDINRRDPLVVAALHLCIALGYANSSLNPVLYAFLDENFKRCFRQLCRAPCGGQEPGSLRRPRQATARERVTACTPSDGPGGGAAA", "UniProt P41144": "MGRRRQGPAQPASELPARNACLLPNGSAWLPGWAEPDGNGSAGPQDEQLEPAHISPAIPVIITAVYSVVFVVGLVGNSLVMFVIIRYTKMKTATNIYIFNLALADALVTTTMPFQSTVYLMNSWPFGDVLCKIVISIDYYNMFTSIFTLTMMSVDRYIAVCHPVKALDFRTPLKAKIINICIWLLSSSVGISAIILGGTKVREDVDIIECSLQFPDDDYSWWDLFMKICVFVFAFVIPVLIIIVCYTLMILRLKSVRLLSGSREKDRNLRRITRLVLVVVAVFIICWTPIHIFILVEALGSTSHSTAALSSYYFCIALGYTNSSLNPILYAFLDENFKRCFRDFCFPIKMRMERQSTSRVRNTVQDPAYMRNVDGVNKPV", "UniProt P33535, whole entry": "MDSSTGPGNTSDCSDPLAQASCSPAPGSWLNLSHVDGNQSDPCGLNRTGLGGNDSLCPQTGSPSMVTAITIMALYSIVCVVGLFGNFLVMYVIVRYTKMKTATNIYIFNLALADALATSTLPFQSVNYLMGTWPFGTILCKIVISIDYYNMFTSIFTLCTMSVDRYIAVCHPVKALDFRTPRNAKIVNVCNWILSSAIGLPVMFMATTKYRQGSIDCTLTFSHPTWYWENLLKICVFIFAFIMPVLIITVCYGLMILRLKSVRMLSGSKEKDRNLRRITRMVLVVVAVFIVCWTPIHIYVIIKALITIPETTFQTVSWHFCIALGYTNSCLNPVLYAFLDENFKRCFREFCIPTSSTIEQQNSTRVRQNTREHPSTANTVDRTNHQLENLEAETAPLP"}, "source": "paper PMC2783503", "about": "(Journal of medicinal chemistry, 2009)", "origin": "cited, not measured here", "key": {"δ opioid receptor": {"molecular_target": "δ opioid receptor (Rattus norvegicus, UniProt P33533)", "conditions": "read-out: Ki^δ; ref Schiller et al.[10]; cited from earlier work"}, "κ opioid receptor": {"molecular_target": "κ opioid receptor (UniProt P41144)", "conditions": "read-out: Ki^κ; ref Schiller et al.[10]; cited from earlier work"}, "μ opioid receptor": {"molecular_target": "μ opioid receptor (UniProt P33535)", "conditions": "read-out: Ki^μ; ref Schiller et al.[10]; cited from earlier work"}}, "data": [{"substance": "H-Tyr-Tic-Phe-Phe-OH [compound 8]", "values": [{"measurement": "Ki", "setting": "δ opioid receptor", "value": "1.22 ± 0.07", "unit": "nM"}, {"measurement": "Ki", "setting": "κ opioid receptor", "value": "> 1000", "unit": "nM"}, {"measurement": "Ki", "setting": "μ opioid receptor", "value": "1720 ± 50", "unit": "nM"}]}, {"substance": "H-Dmt-Tic-Phe-Phe-OH [compound 10]", "values": [{"measurement": "Ki", "setting": "δ opioid receptor", "value": "0.248 ± 0.046", "unit": "nM"}, {"measurement": "Ki", "setting": "κ opioid receptor", "value": "> 1000", "unit": "nM"}]}]}
